Assay results as given in patent US20060051824A1, “Tetrahydrocannabinoid antigens and method of use” (priority 2004, published 2006).

System: Δ^8-THC antibody (AF9-14FR-4-2)
Assay: Binding of antigens to a control Δ^8-THC antibody, evaluated by measuring the A450 (FIG. 11)
Details: control Δ^8-THC antibody AF9-14FR-4-2

Δ^9-THC
binding to the Δ^8-THC antibody, in words, compared with the Δ^8-THC control antigen: very little
